Experimental findings from patent US20120264675A1 are described below.

By UniProt entry, the sequences of proteins in these tests, tags left out. Where a name states a change or a piece, a line headed by the entry shows the natural chain unless it says otherwise.
UniProt P69332: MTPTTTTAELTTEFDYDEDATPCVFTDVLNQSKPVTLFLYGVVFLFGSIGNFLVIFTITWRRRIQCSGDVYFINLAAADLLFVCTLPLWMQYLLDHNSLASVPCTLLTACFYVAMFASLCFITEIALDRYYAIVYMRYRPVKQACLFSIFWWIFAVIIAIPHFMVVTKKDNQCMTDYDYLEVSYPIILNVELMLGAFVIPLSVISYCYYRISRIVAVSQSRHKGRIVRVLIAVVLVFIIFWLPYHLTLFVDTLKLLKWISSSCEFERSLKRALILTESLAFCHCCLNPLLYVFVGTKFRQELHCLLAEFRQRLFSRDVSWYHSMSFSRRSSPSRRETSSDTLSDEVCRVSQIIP

The target of this experiment is HCMV US28 (human cytomegalovirus (HCMV)) (UniProt P69332). The experiment in a line: cell-based or functional assay.

Several values for one entry are separate records, joined by “and”; a condition that tells them apart may be missing. Equal entries are not always repeated.

Take “recombinant human CCL5 (rhCCL5, catalog #278-RN/CF, R&D) (from UniProt P13501 24-91) (ligand)”: the Matrigel invasion of US28-transduced glioma cells and primary GBM cultures was 50% and 50 to 60%.
